This is a selection; strong and weak results do not stand in their true shares. Some salts and complexes are drawn in separate pieces, as the source files them; their charges need not balance. Calls of active or inactive are those of the source.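 The calls were made as follows: active = inhibition above its plate's cutoff, the mean inhibition of sample wells plus 3 SD (cut at about 27% in these data); inactive = the rest.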

Sequences of proteins named here, by UniProt entry; tags and fusion partners are left off.
UniProt P08173, whole entry: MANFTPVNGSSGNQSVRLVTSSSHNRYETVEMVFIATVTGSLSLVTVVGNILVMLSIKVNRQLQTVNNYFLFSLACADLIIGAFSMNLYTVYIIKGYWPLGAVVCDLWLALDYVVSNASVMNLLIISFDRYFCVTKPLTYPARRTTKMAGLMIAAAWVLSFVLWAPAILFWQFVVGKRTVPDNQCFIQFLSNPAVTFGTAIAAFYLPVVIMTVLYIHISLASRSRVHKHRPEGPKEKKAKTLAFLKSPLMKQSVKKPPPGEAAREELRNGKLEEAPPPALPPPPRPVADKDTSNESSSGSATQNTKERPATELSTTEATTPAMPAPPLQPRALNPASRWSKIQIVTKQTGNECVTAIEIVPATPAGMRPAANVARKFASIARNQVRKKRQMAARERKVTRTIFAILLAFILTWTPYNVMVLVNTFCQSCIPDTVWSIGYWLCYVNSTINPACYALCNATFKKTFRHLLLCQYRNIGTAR

The experiment deals with Muscarinic acetylcholine receptor M4 (Homo sapiens) (UniProt P08173). Put plainly: CHRM4 blockers of acetylcholine calcium response – CHO cells, Fluo-8 calcium fluorescence, primary screen (AID 624125).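 Also: 0% = acetylcholine EC80 with DMSO and 100% = DMSO without agonist.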 To be noted: CHO-hM4 cells, ACh EC80, Fluo-8 calcium fluorescence; at 3 µM; stronger effect = higher value.
As usually defined, the inhibition is the relative decrease from the control value, in per cent. Take `CP(=O)(OCCOc1ccccc1)OCCOc1ccccc1`: the inhibition is inactive: 4.75%.
As to `CP(=O)(Nc1ccc(Cl)cc1Cl)Oc1ccccc1` (stereo not given), the inhibition was inactive: -5.99%.
As for `CCCCCCCCCCCCCCCC1C[N+](C)(C)CCOP(C)(=O)O1` (stereo not given), the inhibition was inactive: 9.84%.
For the molecule `Cc1cc(C)cc(OP(C)(=O)Nc2cccc(C(F)(F)F)c2)c1` (stereo not given), the inhibition is inactive: -7.44%.
Regarding `O=C1C(O)=C([N+](=O)[O-])C(=O)C(O)=C1[N+](=O)[O-]`, the inhibition is inactive: 0.02%.
Take `COc1ccc(OP(C)(=O)Nc2ccccc2Br)cc1` (stereo not given): the inhibition is inactive: -5.57%.
Regarding `COc1ccccc1OP(C)(=O)Nc1ccc(C)c(C)c1` (stereo not given), the inhibition is inactive: 9.93%.
With `O=[N+]([O-])c1cc([N+](=O)[O-])c(Nc2ccccn2)c([N+](=O)[O-])c1`, the inhibition is inactive: 13.6%.
On to `Cc1c(NP(C)(=O)Oc2ccc(C(C)C)cc2)c(=O)n(-c2ccccc2)n1C` (stereo not given), for which the inhibition was inactive: -3.65%.
`CCc1ccc(OP(C)(=O)O)cc1`: the inhibition was inactive: -2.8%.
`COc1ccccc1OP(C)(=O)Nc1ccc(C)cc1C` (stereo not given): the inhibition is inactive: 1.64%.
In the case of `CP(=O)(Nc1ccccn1)Oc1ccccc1` (stereo not given), the inhibition is inactive: -6.6%.
With `COc1ccccc1OP(C)(=O)Nc1ccc(Br)cc1` (stereo not given), the inhibition is inactive: -3.87%.
As for `COc1ccc(OP(C)(=O)Nc2ccccn2)cc1` (stereo not given), the inhibition was inactive: -8.53%.
As for `CP(=O)(Nc1ccc(Cl)cc1)Oc1ccc(F)cc1` (stereo not given), the inhibition was inactive: -6.19%.
For the molecule `CC(C)(C)c1ccc(OP(C)(=O)O)cc1`, the inhibition was inactive: -0.41%.
In the case of `COc1ccccc1OP(C)(=O)Nc1ccccc1Br` (stereo not given), the inhibition was inactive: -6.88%.
For `CN(C)C(=O)c1c([N+](=O)[O-])cc([N+](=O)[O-])cc1[N+](=O)[O-]`, the inhibition was inactive: -12.3%.
`COc1ccc(OP(C)(=O)Nc2ccc(Br)cc2)cc1` (stereo not given): the inhibition was inactive: -6.22%.
As for `CCc1ccc(OP(C)(=O)Nc2cccnc2)cc1` (stereo not given), the figure is inactive: -12.5%; as for `CP(=O)(Oc1ccccc1)N1CCOC1=O` (stereo not given), inactive: 7.3%.
`COc1ccccc1OP(C)(=O)Nc1c(C)n(C)n(-c2ccccc2)c1=O` (stereo not given): the inhibition is inactive: -4.32%.
For the molecule `CP(=O)(OC12CC3CC(CC(C3)C1)C2)OC12CC3CC(CC(C3)C1)C2`, the inhibition was inactive: -9.47%.
Take `CCOC(=O)c1ccc(NP(C)(=O)Oc2ccc(Cl)cc2)cc1` (stereo not given): the inhibition was inactive: -5.09%.
`O=[N+]([O-])c1cc([N+](=O)[O-])c(NCC2CCS(=O)(=O)C2)c([N+](=O)[O-])c1` (stereo not given): the inhibition is inactive: -1.91%.
Regarding `Cc1cc(-c2cccc3ccccc23)c(C)cn1.O=[N+]([O-])c1cc([N+](=O)[O-])c(O)c([N+](=O)[O-])c1`, the inhibition was inactive: -3.4%.
For `O=[N+]([O-])c1ccc(OP2(=O)COCCO2)cc1` (stereo not given), the inhibition was inactive: -1.04%.
As for `O=C(OC1CN2CCC1CC2)c1cccc(Cl)c1` (stereo not given), the inhibition is active: 47.7%.
In the case of `Cc1c(C(c2ccc3c(c2)OCO3)c2c(C)n(C)n(-c3ccccc3)c2=O)c(=O)n(-c2ccccc2)n1C.O=[N+]([O-])c1cc([N+](=O)[O-])c(O)c([N+](=O)[O-])c1`, the inhibition was inactive: 6%.
As for `CN(C)C1(CNC(=O)c2ccc(Cl)c(S(N)(=O)=O)c2)CCCCC1`, the figure is inactive: -9.26%.
Consider `COc1ccc(OP(C)(=O)Nc2cccc(Br)c2)cc1` (stereo not given), for which the inhibition was inactive: 14.4%.
With `COc1ccc(NP(C)(=O)Oc2ccccc2OC)cc1` (stereo not given) the figure was inactive: 2.85%; with `CP(=O)(Nc1ccc2c(c1)OCCO2)Oc1ccccc1` (stereo not given), inactive: -0.48%.
As to `O=[N+]([O-])c1cc([N+](=O)[O-])c(C(F)(F)F)c([N+](=O)[O-])c1O`, the inhibition is inactive: 8.38%.
For `Cc1ccccc1NP(C)(=O)Nc1ccccc1C`, the inhibition was inactive: -6.03%.
With `CP(=O)(Nc1ccc(SC(F)(F)F)cc1)Oc1ccc(F)cc1` (stereo not given) the figure was inactive: 10.6%.
With `CCOP(C)(=S)SCC(=O)NC(C)(CC)C(=O)O` (stereo not given) the figure was inactive: 1.45%; with `O=C(OC1CN2CCC1CC2)c1ccc([N+](=O)[O-])cc1` (stereo not given), inactive: -17.6%.
With `COc1ccc2c(c1O)-c1c(O)c(OC)cc3c1[C@H](C2)[N+](C)(C)CC3.O=[N+]([O-])c1cc([N+](=O)[O-])c([O-])c([N+](=O)[O-])c1[O-]` the figure was inactive: -7.6%; with `O=[N+]([O-])c1cc([N+](=O)[O-])c(Nc2ccc(Cl)cc2)c([N+](=O)[O-])c1`, inactive: 7.55%; with `CC(C)c1ccc(OP(C)(=O)Nc2ccc(SC(F)(F)F)cc2)cc1` (stereo not given), inactive: -6.11%.
`CP(=O)(Nc1ccccc1F)Oc1ccccc1` (stereo not given): the inhibition was inactive: -5.81%.
Turning to `O=C(OC1CN2CCC1CC2)c1ccccc1` (stereo not given), the inhibition was active: 47.4%.
As for `Cc1c([N+](=O)[O-])cc([N+](=O)[O-])c(Br)c1[N+](=O)[O-]`, the inhibition is inactive: -15.4%.
For `O=[N+]([O-])c1cc([N+](=O)[O-])c(OC2CCCCC2O)c([N+](=O)[O-])c1` (stereo not given), the inhibition was inactive: -9.39%.
With `CCCCCOc1ccc(NP(C)(=O)Oc2ccc(Cl)cc2Cl)cc1` (stereo not given) the figure was inactive: -2.56%.
With `CP(=O)(Nc1ccccc1)Oc1ccc(F)cc1` (stereo not given), the inhibition is inactive: -22.9%.
On to `CCN(CC)CCCNc1ccccc1[N+](=O)[O-].O=[N+]([O-])c1cc([N+](=O)[O-])c(O)c([N+](=O)[O-])c1`, for which the inhibition was inactive: 19.8%.
As to `COc1ccc(OP(C)(=O)Nc2ccc(SC(F)(F)F)cc2)cc1` (stereo not given), the inhibition was inactive: 2.62%.
`CCOC(=O)c1ccc(NP(C)(=O)Oc2ccc(F)cc2)cc1` (stereo not given): the inhibition is inactive: 2.74%.

For the origin of these results see PubChem BioAssay AID624125 (The Scripps Research Institute Molecular Screening Center, 2012).
